In the assay the target is MMP-2 (Homo sapiens, UniProt P08253). The assay can be described thus: Assay for inhibitory activities on MMP-2 (fluorogenic coumarin-labelled peptide substrate). The format is biochemical. To be noted: MMP-2 purchased from Calbiochem-Novabiochem; substrate MOCAc-Pro-Leu-Gly-Leu-A2Pr(DNP)-Ala-Arg-NH2.

The chains behind the UniProt entries cited, without tags or fusion partners. Residues count along the entry.
UniProt P08253, 110-660 limits assumed: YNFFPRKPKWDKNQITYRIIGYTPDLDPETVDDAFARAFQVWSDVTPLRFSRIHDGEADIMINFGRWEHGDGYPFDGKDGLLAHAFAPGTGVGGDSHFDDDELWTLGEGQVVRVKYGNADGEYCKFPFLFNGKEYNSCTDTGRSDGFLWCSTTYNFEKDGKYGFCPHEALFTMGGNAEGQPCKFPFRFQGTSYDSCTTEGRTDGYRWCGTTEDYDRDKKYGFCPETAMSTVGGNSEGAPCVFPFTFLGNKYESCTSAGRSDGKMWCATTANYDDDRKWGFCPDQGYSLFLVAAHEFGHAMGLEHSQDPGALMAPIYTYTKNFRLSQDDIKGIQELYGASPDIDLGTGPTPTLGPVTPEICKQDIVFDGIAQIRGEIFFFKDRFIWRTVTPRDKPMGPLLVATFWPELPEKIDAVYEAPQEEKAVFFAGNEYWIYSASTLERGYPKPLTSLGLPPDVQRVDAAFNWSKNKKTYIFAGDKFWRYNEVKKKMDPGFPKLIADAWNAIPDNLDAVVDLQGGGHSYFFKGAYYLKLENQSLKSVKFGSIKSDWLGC

For the compound `O=C(O)CNS(=O)(=O)c1ccc(-c2noc(-c3ccc(F)cc3)n2)cc1`, the half-inhibitory concentration (IC50) came to 181 nM.
The figure for `O=C(O)CNS(=O)(=O)c1ccc(-c2noc(-c3ccc(Br)cc3)n2)cc1` is 53.4 nM.

Broadly, the IC50 is the concentration at which inhibition is half-maximal.

The values above are taken from patent publication US6495578B1, “Sulfonamide derivatives having oxadiazole rings” (Shionogi & Co., Ltd., priority 1999, dated 2002).
